Here are results for 41 compounds from PubChem BioAssay AID900 (National Center for Advancing Translational Sciences (NCATS), 2007).

The chains behind the UniProt entries cited, without tags or fusion partners. Where a name states a change or a piece, a line headed by the entry shows the natural chain unless it says otherwise.
UniProt P29466: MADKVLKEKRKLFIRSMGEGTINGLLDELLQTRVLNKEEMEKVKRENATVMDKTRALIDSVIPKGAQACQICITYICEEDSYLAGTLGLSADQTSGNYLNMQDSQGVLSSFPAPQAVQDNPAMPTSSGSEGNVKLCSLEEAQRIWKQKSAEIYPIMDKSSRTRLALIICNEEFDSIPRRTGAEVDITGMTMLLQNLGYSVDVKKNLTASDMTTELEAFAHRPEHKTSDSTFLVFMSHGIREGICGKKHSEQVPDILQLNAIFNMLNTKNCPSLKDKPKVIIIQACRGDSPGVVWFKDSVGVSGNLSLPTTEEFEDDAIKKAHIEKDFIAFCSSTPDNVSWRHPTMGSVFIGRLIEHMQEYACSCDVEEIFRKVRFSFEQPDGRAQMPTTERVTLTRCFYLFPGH

The experiment has as its target Caspase-1 (Homo sapiens) (UniProt P29466). As to the kind of experiment: qHTS Assay for Allosteric/Competitive Inhibitors of Caspase-1.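 Note: plate controls were vehicle for no effect and no substrate for full effect.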 As to conditions: Caspase-1 enzyme, Ac-WEHD-AFC fluorogenic rate. From the text:
NIH Molecular Libraries Screening Centers Network [MLSCN]
NIH Chemical Genomics Center [NCGC]
PI Name: Dr. James Wells,
Dr. Enrique Perez-Paya, Dr.Janice Williams, Dr. Dennis Wolan, a person
The caspases (Cysteine Aspartyl Protease) comprise a related family of 14 dimeric proteases that are critical mediators of apoptosis (programmed cell death) and inflammation. The caspases represent an important class of drug targets for stroke, ischemia, cancer and inflammatory diseases. […] One goal of this project was to identify compounds that act as allosteric inhibitors via stabilizing the procaspase form of the enzyme. Previous work in Well's laboratory has shown that such allosteric inhibitors can be identified and these act by binding at the dimer interface of enzyme (Hardy, Lam et al., 2004).
The biochemical assay was configured using purified caspase 1 at a high enzyme concentration to promote formation of the homodimers and thus facilitate the identification of allosteric inhibitors. The overall goal was to identify reversible inhibitors with better drug-like properties than the currently available set of aspartyl-containing peptidomimetics that covalently bind the active site. Caspase 1 was assayed using the profluorescent substrate Ac-WEHD-AFC. After initiation of the assay with substrate the plates were rapidly read using an automated robotic system (Kalypsys, Inc.) to maintain consistent timing. A kinetic mode of detection was used where the initial rate was collected (estimated final product formation was ~10%). Compounds were screened as a concentration-titration series that ranged from 57 uM to 0.7 nM. Below is the protocol used for caspase 1.
NCGC Assay Protocol Summary:
Caspase 1 was prepared in buffer (50 mM HEPES pH 7.5, 50 mM KCl, 200 mM NaCl, 10 mM DTT, 0.1% CHAPS) at a concentration of 66.6 nM and 3 uL was dispensed to all wells using black solid Kalypsys 1536-well plates. 20 nL of DMSO containing compounds was added using a pin-tool (Kalypsys Inc.) to columns 5-48. Then 20 nL of DMSO solution from a control plate was added to columns 1-4. Controls were: Column 1, 16 point titration with each concentration in duplicate (1:1 dilutions in DMSO; final starting concentration was 57 uM) of the caspase 1 inhibitor Ac-WEHD-CHO (Alexis Biochemicals); Column 2, a 16 point titration with each concentration in duplicate of the free AFC fluorophore prepared in DMSO (Alexis Biochemicals), final starting was 40 uM; Column 3 neutral (DMSO only) control; Column 4: DMSO alone, to serve as a negative control (no substrate was added). Then 1 uL of 20 uM the substrate Ac-WEHD-AFC (Alexis Biochemicals) prepared in the same buffer was dispensed to all wells except columns 2 and 4 and the plates were immediately transferred (< 1 min) to the Viewlux. The plates were then exposed using 405 nm excitation/520 nm emission filters for 4 sec and read at 20 sec intervals for 3 min. Final enzyme concentration was 50 nM and the final substrate concentration was 5 uM.
Concentration-response curves were fitted to the data calculated from slope of the linear regression of fluorescent intensity versus time (the rate). The concentration-effect curves were then classified based on curve quality (r2), response magnitude and degree of measured activity. […] Inconclusive compounds had appreciable concentration-dependent effects on both the measured rate and the interpolated basal fluorescence intensity at the start of the reaction but where the basal fluorescent intensity was marginal (e.g. < 10-fold). Inconclusive compounds also encompass highly fluorescent compounds (>100-fold increases in fluorescent intensities values relative to controls) where artificial concentration-dependent decreases in the rate occurred at high compound concentrations due to fluorescent interferences.
Keywords: Caspase 1, proteases, profluorescent, MLSMR, MLSCN, NIH Roadmap, qHTS, NCGC

[1] abbreviates: at 57.5 µM (top of the series) unless noted.

“And” between values parts separate entries of the source, which are not always exact repeats. Identical values can stand only once. The entries are a selection whose mix differs from that of the whole data set. The source made the active and inactive calls. Calls come from the whole dose curve; as a rule, active = well fitted inhibition curve with a large enough effect; inconclusive = small, poorly fitted or top-dose-only effect; inactive = flat fitted curve, though single readings scatter.

As for `CN(C(=O)Cc1ccc(Cl)c(Cl)c1)[C@H]1CCCC[C@@H]1N1CCCC1`, the activity change, negative = inhibition under setting [1] is inactive: 2.5% and inactive: 0.376% and inactive: -0.0742%. As to `[N-]=[N+]=NCC(O)CN=[N+]=[N-]` (configuration not stated), the activity change, negative = inhibition under setting [1] is inactive: -1.8% [at 11.5 µM]. Turning to `C(Cc1nn[nH]n1)c1nn[nH]n1`, under setting [1], the activity change, negative = inhibition was inactive: -1.87% [at 11.5 µM].

In the case of `O=[N+]([O-])c1ccc(C[As](=O)(O)O)cc1`, the activity change, negative = inhibition under setting [1] was inactive: -1.14% [at 11.5 µM]. Same read-out and setting: the result for `Cc1c2non([O-])c-2c(C)[n+](=O)[n+]1[O-]` reads inactive: -0.295%. With `NCC[C@@H](N)CSP(=O)(O)O`, under setting [1], the activity change, negative = inhibition was inactive: 0.401% [at 11.5 µM]. Regarding `CCc1nc2c(n1)c1c(non1O)c1c2no[n+]1[O-]`, the activity change, negative = inhibition under setting [1] is inactive: -10.2%.

On to `O=C(CO)Nc1ccc([As](=O)(O)O)cc1`, for which the activity change, negative = inhibition under setting [1] was inactive: -4.29% [at 11.5 µM]. For `CN(C(=O)Cc1ccccc1)[C@@H]1CC[C@@]2(CCCO2)C[C@H]1N1CCCC1`, under setting [1], the activity change, negative = inhibition was inactive: -0.445%. As to `Cc1cc([N+](=O)[O-])cc([N+](=O)[O-])c1O`, under setting [1], the activity change, negative = inhibition was inactive: -0.568%. Turning to `[N-]=[N+]=Nc1ccc([As](=O)(O)O)cc1`, the activity change, negative = inhibition under setting [1] is inactive: 1.15% [at 11.5 µM]. As for `O=C(OC1CN2CCC1CC2)c1cccc(Cl)c1` (configuration not stated), the activity change, negative = inhibition under setting [1] was inactive: -1.45%. For `O=P(Nc1nccs1)(c1ccccc1)c1ccccc1`, the activity change, negative = inhibition under setting [1] is inactive: -6.79%. As to `c1nnnn1CCn1cnnn1`, the activity change, negative = inhibition under setting [1] is inactive: -0.0427%. For the compound `CN1CCC[C@H](OC(=O)C(c2ccccc2)c2ccccc2)C1`, the activity change, negative = inhibition under setting [1] was inactive: 0.724% [at 11.5 µM].

`C[C@@H](O)COc1ccc([As](=O)(O)O)cc1N`: under setting [1], the activity change, negative = inhibition is inactive: -2.4% [at 11.5 µM]. Regarding `O=P1(Nc2nc3ccc(Cl)cc3s2)COc2ccccc2O1` (configuration not stated), the activity change, negative = inhibition under setting [1] is inactive: -0.164%. Take `COC(=O)c1cc2c(s1)N=C(c1ccccc1)N(C)P2(=O)N1CCOCC1` (configuration not stated): the activity change, negative = inhibition under setting [1] is inactive: -1.55%. Take `CCOP1(=S)c2c(C)nn(CCC#N)c2N=C(c2ccccc2F)N1C` (configuration not stated): the activity change, negative = inhibition under setting [1] was inactive: -0.815%. Regarding `O=P(Nc1nccs1)(c1ccccc1)c1nc2ccccc2s1` (configuration not stated), under setting [1], the activity change, negative = inhibition was inactive: -0.0607%. `O=[As](O)(O)c1ccc([As](=O)(O)O)cc1`: the activity change, negative = inhibition under setting [1] is inactive: -3.74% [at 11.5 µM]. On to `NC(=O)Nc1ccc([As](=O)(O)O)cc1`, for which the activity change, negative = inhibition (at 25.7 µM (top of the series)) is inactive: -0.813% and the activity change, negative = inhibition (at 57.5 µM (top of the series)) is inactive: -2.7%. Regarding `CCOP1(=S)c2c(C)nn(CCC#N)c2N=C(c2ccc(F)cc2)N1C` (configuration not stated), under setting [1], the activity change, negative = inhibition was inactive: 1.17%. In the case of `NS(=O)(=O)Cc1ccc([As](=O)(O)O)cc1`, the activity change, negative = inhibition under setting [1] is inactive: -1.05% [at 11.5 µM]. For the compound `O=C(CC(=O)c1ccccc1)O[C@H]1CN2CCC1CC2`, under setting [1], the activity change, negative = inhibition is inactive: 0.592% [at 11.5 µM]. `CN(C(=O)Cc1ccc(Cl)c(Cl)c1)[C@@H]1CC[C@@]2(CCCO2)C[C@H]1N1CCCC1`: the activity change, negative = inhibition under setting [1] is inactive: 1.96%. For the compound `O=P1(Nc2ccccn2)COc2ccccc2OC1`, under setting [1], the activity change, negative = inhibition was inactive: -1.14%. With `CN(CCCl)Cc1cc(Cl)c(NC2=NCCN2)c(Cl)c1`, under setting [1], the activity change, negative = inhibition was inactive: 0.944%. `Clc1n[nH]nc1-c1nn[nH][15n]1`: the activity change, negative = inhibition under setting [1] was inactive: 1.98%. Consider `CN(C(=O)Cc1ccc(Cl)c(Cl)c1)[C@@H]1CCCC[C@H]1N1CCCC1`, for which, under setting [1], the activity change, negative = inhibition is inactive: -1.46% [middle of 4 runs]. Take `Cc1nn(-c2ccccc2)c2c1P(=O)(N1CCOCC1)N(C)C(c1ccccc1)=N2` (configuration not stated): the activity change, negative = inhibition under setting [1] was inactive: 0.938%. Regarding `O=P1(Nc2ncccn2)COc2ccccc2OC1`, under setting [1], the activity change, negative = inhibition was inactive: 1.19%. In the case of `O=P1(Nc2ccc(Br)cn2)COc2ccccc2OC1`, the activity change, negative = inhibition under setting [1] is inactive: 1.06%. Take `CN(N=O)C(=N)N[N+](=O)[O-]`: the activity change, negative = inhibition under setting [1] is inactive: -1.85%. As for `COP1(=S)c2c(C)nn(CCC#N)c2N=C(c2ccc(F)cc2)N1C` (configuration not stated), the activity change, negative = inhibition under setting [1] was inactive: 1.37%.

With `O=C(COc1ccccc1)OC1CN2CCC1CC2` (configuration not stated), the activity change, negative = inhibition under setting [1] was inactive: 2.32%. As for `O=C(O)[C@@H](O)c1ccc([As](=O)(O)O)cc1`, the activity change, negative = inhibition under setting [1] was inactive: 4.33% [at 11.5 µM]. Consider `O=C(OC1CN2CCC1CC2)C12CC3CC(CC(C3)C1)C2` (configuration not stated), for which, under setting [1], the activity change, negative = inhibition was inactive: -2.14%. On the same count and under the same terms, the result for `NC(=O)Nc1cc([As](=O)(O)O)cc(I)c1O` reads inactive: -0.459% [at 11.5 µM]; that for `O=[As]c1ccc(S(=O)(=O)NCCO)cc1` (configuration not stated), inactive: 0.291% [at 11.5 µM]. For `[N-]=[N+]=NCC(N)=O`, under setting [1], the activity change, negative = inhibition was inactive: 0.475% [at 11.5 µM].
